Data as given in publication PMC3878761, “Interactions of peptide triazole thiols with Env gp120 induce irreversible breakdown and inactivation of HIV-1 virions” (Retrovirology, 2013).

System: fully infectious HIV-1 BaL virions
Experiment: infection inhibition, fully infectious HIV-1 BaL (p24 ELISA)
Settings: read-out: Viral inactivation EC50 (*, fully infectious), HOS CD4^+ve CCR5^+ve cells, 30 min pre-treatment at 37°C, p24 ELISA after 48 h, ± SD

Row | Structure (SMILES) | EC50
1 | CC[C@H](C)[C@H](NC(=O)[C@@H](N)CCCNC(=N)N)C(=O)N[C@@H](CC(N)=O)C(=O)N[C@@H](CC(N)=O)C(=O)N[C@H](C(=O)N1C[C@@H](n2cc([C]34[CH]5[CH]6[CH]7[CH]3[Fe]6754389%10[CH]4[CH]3[CH]8[CH]9[CH]4%10)nn2)C[C@H]1C(=O)N[C@@H](Cc1c[nH]c2ccccc12)C(=O)N[C@@H](CO)C(=O)N[C@@H](CCC(=O)O)C(=O)N[C@@H](C)C(=O)N[C@@H](CCSC)C(=O)N[C@@H](CCSC)C(N)=O)[C@@H](C)CC (some centres unmarked) [HNG156] | 5.5 µM
2 | CC[C@H](C)[C@H](NC(=O)[C@@H](N)CCCNC(=N)N)C(=O)N[C@@H](CC(N)=O)C(=O)N[C@@H](CC(N)=O)C(=O)N[C@H](C(=O)N1C[C@@H](n2cc([C]34[CH]5[CH]6[CH]7[CH]3[Fe]6754389%10[CH]4[CH]3[CH]8[CH]9[CH]4%10)nn2)C[C@H]1C(=O)N[C@@H](Cc1c[nH]c2ccccc12)C(=O)N[C@@H](CO)C(=O)N[C@@H](CCC(=O)O)C(=O)N[C@@H](C)C(=O)N[C@@H](CCSC)C(=O)N[C@@H](CCSC)C(=O)NCCC(=O)N[C@@H](CCC(N)=O)C(=O)NCCC(=O)N[C@@H](CS)C(N)=O)[C@@H](C)CC (some centres unmarked) [KR13] | 0.639 µM
